Values quoted from earlier work, collected in article PMC4624469 (Synapse (New York, N.Y.), 2015).

Target: D2 Receptor
Conditions: read-out: Binding Affinity D2 Receptor; ref Heiderbreder et al., 2010; cited from earlier work

## COc1ccccc1N1CCN(CCCCNC(=O)c2ccc3ccccc3c2)CC1 [BP 897]
  Ki: 61 nM
